Test results reported in US20070071762A1, “COMPREHENSIVE DIAGNOSTIC TESTING PROCEDURES FOR PERSONALIZED ANTICANCER CHEMOTHERAPY (PAC)” (CCC Diagnostics, LLC, priority 2005, published 2007).

Key:
HCC 38 cells = assay: WST-8 growth inhibition of cultured breast cancer cells; assay type: cell-based, human; conditions: Trastuzumab
Experimental: (§1) In another example, the expression of thymidylate synthase (TS) was correlated with the response of breast cancer cells to the chemotherapeutic drug 5-fluorouracil (5-FU). TS is a key enzyme in DNA biosynthesis and has been postulated to play a major role in predicting the response to 5-FU based chemotherapy. Experiments were conducted to examine this relationship. […] Doses ranged from 5-300 μg/ml.

SKBR-3 cells = assay: as above; assay type: cell-based, human; conditions: Herceptin
Experimental: as §1

HCC 202 cells = assay: as above; assay type: cell-based, human; conditions: Trastuzumab
Experimental: as §1

[1] = tested on: HER-2 positive metastatic BC; conditions: single agent therapy; cited from earlier work
MCF-7 cells = assay: WST-8 growth inhibition of cultured breast cancer cells; assay type: cell-based, human
Experimental: (§2) In another example, the expression of thymidylate synthase (TS) was correlated with the response of breast cancer cells to the chemotherapeutic drug 5-fluorouracil (5-FU). TS is a key enzyme in DNA biosynthesis and has been postulated to play a major role in predicting the response to 5-FU based chemotherapy. Experiments were conducted to examine this relationship. Experimental conditions and analysis methods were similar to those used with Herceptin. Doses ranged from 5-300 μg/ml.

HCC 2218 cells = assay: as above; assay type: cell-based, human
Experimental: as §2

[2] = Herceptin, 72 hours post treatment
[3] = Herceptin, HCC 2218 cells, 72 hours post treatment

trastuzumab [Herceptin]
IC50 (HCC 38 cells): NR* (NR = No Response)
IC50-2 (SKBR-3 cells; SKBR 3 cells, 72 hours post treatment): 650 mg/L
lowest concentration with response (dose-related inhibition of proliferation) (SKBR-3 cells; SKBR-3 cells): 0.125 mg/mL
IC50 (HCC 202 cells): NR* (NR = No Response)
patients who respond [1]: < 30%
IC50-1 (MCF-7 cells; [2]): 1250 mg/L
IC50-2 (MCF-7 cells; [2]): 1360 mg/L
IC50 (MCF-7 cells; Trastuzumab): 1250 mg/L
lowest concentration with response (dose-related inhibition of proliferation) (HCC 2218 cells; Herceptin, HCC2218 cells): 0.032 mg/mL
IC50-1 (HCC 2218 cells; [3]): 60 mg/L
IC50-2 (HCC 2218 cells; [3]): 120 mg/L
IC50 (HCC 2218 cells; Trastuzumab, HCC 2218 cells): 60 mg/L
